Values quoted from earlier work as cited in patent US20090169478A1, “In Vivo Imaging and Therapy with Magnetic Nanoparticle Conjugates” (priority 2005, published 2009).

Tested on: mice
Settings: mouse, in vivo, 350 mg/kg; cited from earlier work

For iron oxide nanoparticles, the tolerance is given as “well tolerated”.
